Measurements published in PubChem BioAssay AID893 (National Center for Advancing Translational Sciences (NCATS), 2007).
The entries are a selection whose mix differs from that of the whole data set. Inconclusive results are not listed. Calls of active or inactive are those of the source. The call rests on the fitted dose curve; in most records, active means well fitted inhibition curve with a large enough effect; inconclusive means small, poorly fitted or top-dose-only effect; inactive means no such curve, though single readings can be large or run the other way.

target: 3-hydroxyacyl-CoA dehydrogenase type-2 (Homo sapiens) (UniProt Q99714); assay: qHTS Assay for Inhibitors of HSD17B4, hydroxysteroid (17-beta) dehydrogenase 4; conditions: recombinant HSD17B10, NADH fluorescence kinetic;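 further: the protocol describes HADH2 (HSD17B10) and not the HSD17B4 of the title; nearly all actives have a fitted effect of over 70% in size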
Potency means the concentration at half of the fitted maximal effect.

| SMILES | Potency |
| --- | --- |
| O=P(Nc1nccs1)(c1ccccc1)c1nc2ccccc2s1 (stereo unspecified) | active: 794 nM |
